Measurements as given in publication PMC5653977, “Spironolactone is an antagonist of NRG1‐ERBB4 signaling and schizophrenia‐relevant endophenotypes in mice” (EMBO Molecular Medicine, 2017).

Tested on: NRG1-ERBB4 signaling
Assay: Nrg1-ERBB4-PIK3R1 split TEV co-culture compound screen of the NIH Clinical Collection

For `CCN(Cc1ccncc1)C(=O)C(CO)c1ccccc1` (stereo not shown) [TROPICAMIDE, reference compound], the Z-SCORE was 0.07.
